Laboratory results reported in paper PMC12336229, “Peptide-mimetics derived from leucyl-tRNA synthetase are potential agents for the therapy of mt-tRNA related diseases” (Frontiers in Pharmacology, 2025).

Test: in vivo
Set-up: species or system C57BL/6 mice
Conditions: male, C57BL/6J, mouse, iv, 4.15 ug, In vivo uptake of 64Cu-PMT, SUVmean
Excerpt: Two-month-old male C57BL/6J mice were purchased from ENVIGO RMS S. r.l. (San Pietro al Natisone, Italy). All animals were housed in the San Raffaele Research Institute (Milan) animal facility under constant temperature and humidity, with a 12-h light/dark cycle and access to food and water ad libitum and environmental enrichment. Experimental procedures involving the use of animals complied with the EU Directive 2010/63/EU for animal experiments and have been approved by the Ethical Committees of the San Raffaele Research Institute (Milan) and the Italian Ministry of Health (license n. 717/2021-PR). The study was conducted in compliance with the ARRIVE 2.0 guidelines.
Sixty adult C57BL/6 male mice were initially included in the study. Twenty animals were dedicated to in vivo/ex vivo biodistribution of the radiolabelled PMT ^64Cu-PMT. […]
PET-CT imaging was performed using β-Cube® and γ-Cube® (Molecubes, Gent, NE), respectively, equipped with the mouse Hotel insert hosting up to four mice simultaneously. A group of 5 animals were injected into the caudal vein with the radiopharmaceutical ^64Cu-PMT (mean injected radioactivity of 3.62 ± 1.03 MBq, corresponding to mean injected mass of 4.15 ± 0.53 µg) and subjected to PET-CT acquisition at 1, 3, 24 and 48 h after injection. […] Temperature was maintained constant, and respiratory and cardiac rates were monitored. […]

SMILES: CC[C@@H](C)[C@@H](NC(=O)[C@@H](CC(C)C)NC(=O)[C@@H](C)NC(=O)[C@H](NC(=O)[C@@H](CCCNC(=N)N)NC(=O)[C@H]1CCCN1C(=O)[C@@H](CO)NC(=O)[C@@H](CC(C)C)NC(=O)[C@@H](Cc1ccccc1)NC(=O)[C@@H](CO)NC(=O)[C@@H](CCCCN)NC(=O)[C@H](N)CCCCN)[C@H](C)O)C(=O)N[C@H](CC(N)=O)C(=O)N[C@H](Cc1ccccc1)C(=O)N[C@H](CC(C)C)C(=O)N[C@@H](C(=O)N[C@H](CSC1CC(=O)N(CCNC(=O)CN2CCN(CC(=O)O)CCN(CC(=O)O)CC2)C1=O)C(N)=O)C(C)C (stereo partly shown) [^64Cu-PMT, metal not drawn]
- SUV at 48 h: 0.137 ± 0.04 SUV
